Rango-impB inh – qHTS Assay for Inhibitors of Rango (Ran-regulated importin-beta cargo) - Importin beta complex formation. AID 540263, 2011. Rango CFP/YFP FRET sensor + importin beta, 45 min. Importin subunit beta-1 (Homo sapiens), Q14974. Potency, µM (series often up to 92.2 µM), for inactives: at the top dose inhibition of complex formation. 340,000 compounds, 0.031% hits; calls by dose curve;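 also: potency is read from the fitted curve at half-maximal effect; 0% = DMSO wells and 100% = buffer wells lacking importin beta; nearly all actives have a fitted effect of over 15% in size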
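Inhibition scored from the CFP 486 nm/YFP 530 nm FRET ratio 45 min after adding 0.125 microM importin beta to 50 nM Rango biosensor preincubated 5 min with compound (room temperature, PBS with DTT, Tween-20, BSA). No-importin wells as positive control.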
PLK1 PBD inh – qHTS for Inhibitors of PLK1-PDB (polo-like kinase 1 - polo-box domain): Primary Screen; Plk1 PBD binding of FITC phosphopeptide, fluorescence polarization; Potency, µM, inactives show max response, negative = inhibition, hits mostly inhibitors; 360,000 compounds, 2.8% hits; also: potency is read from the fitted curve at half-maximal effect; series mostly up to about 57 µM; % is scaled to controls: 0 for no effect and ±100 for the full control effect; nearly all actives have a fitted effect of over 65% in size
VDR inhibitor – Inhibitors of the vitamin D receptor (VDR): qHTS; VDR-SRC2-3 peptide fluorescence polarization, 2 h; Potency, µM, for the others: max response, negative = inhibition, usual class: inhibitors; 400,000 compounds, 0.93% hits; AID 504847, 2011; also: potency is read from the fitted curve at half-maximal effect; % is scaled to controls: 0 for no effect and ±100 for the full control effect
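Fluorescence polarization assay of small-molecule disruption of VDR binding to coregulator peptide SRC2-3. Compounds and controls pin-transferred, then read after 2 h incubation at ambient room temperature.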
GCN5L2 inh – qHTS Assay for Inhibitors of GCN5L2; Histone acetyltransferase KAT2A (Homo sapiens), Q92830; GCN5L2 HAT assay, ThioGlo1 CoA-SH fluorescence; Potency, µM (top dose mostly 58.9 µM), inactives show top-dose activity change, negative = inhibition, most hits filed as inhibitors; 390,000 compounds, 0.21% hits; AID 504327, 2011; also: potency is read from the fitted curve at half-maximal effect; % is scaled to controls: 0 for no effect and ±100 for the full control effect
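Enzyme at 20nM final was mixed with library compounds for 15 min at room temperature. Peptide H3(1-25) at 75uM, acetyl-CoA at 70uM and ThioGlo1 at 50uM were then added. Plates were read immediately and after 20 min (Ex340nm/Em540nm).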
Rango release inh – qHTS Assay for Inhibitors of RanGTP induced Rango (Ran-regulated importin-beta cargo) - Importin beta complex dissociation; Potency, µM (series often up to 46.1 µM), without a hit: at the highest dose activity change, negative = inhibition; Snurportin-1 (Homo sapiens) + GTP-binding nuclear protein Ran (Homo sapiens) + Importin …; AID 540253, 2011; Biochemical FRET Rango-importin beta, RanGTP-induced dissociation; 340,000 compounds, 0.071% hits; calls by dose curve; also: potency is read from the fitted curve at half-maximal effect; % of control where 0% means no effect; nearly all actives have a fitted effect of over 45% in size
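Compounds sat 5 min at room temperature with 0.1 uM Rango biosensor plus 0.25 uM importin beta, then FRET pre-read. RanGTP-RCC1 (0.6 uM Ran, 2mM GTP, 0.2 uM RCC1) added for 45 min, and the CFP/YFP post-read measured blocked complex dissociation.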
PI5P4K alpha inh – qHTS for Inhibitors of phosphatidylinositol 5-phosphate 4-kinase (PI5P4K) | Phosphatidylinositol 5-phosphate 4-kinase type-2 alpha (Homo sapiens), P48426 | PI5P4Kalpha enzyme, ADP-Glo luminescence, 60 min; stronger effect = lower value | max response, % | 330,000 compounds, 1.2% hits | AID 652105, 2013; active = max response of -50% or lower; inconclusive = between -30% and -50%; inactive = -30% or higher; also: value at the top dose of about 77 µM; % is scaled to controls: 0 for no effect and ±100 for the full control effect
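Single end-point luminescence (ADP-Glo) quantified ADP from PI5P4Kalpha turnover; ATP 5 microM final, 1 h at RT, 0.1% CHAPS and 0.28 mM EGTA in HEPES pH 7.4.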
Numbers without * were called inactive; ? = inconclusive; nt = no result. Rows were chosen to be rich in hits. Some 3.6% of all compounds tested hit in one or more screens of this group. Unless noted, calls follow the shape of the dose curve; as a rule, active = well fitted curve in the direction sought with a large enough effect; inconclusive = small, poorly fitted or top-dose-only effect, or another doubt; inactive = no such curve, though single readings can be large; an effect the other way counts as inactive or inconclusive.

Sequences of proteins named here, by UniProt entry; tags and fusion partners are left off.
Importin subunit beta-1 (Homo sapiens), Q14974, UniProt Q14974, whole entry, looked up: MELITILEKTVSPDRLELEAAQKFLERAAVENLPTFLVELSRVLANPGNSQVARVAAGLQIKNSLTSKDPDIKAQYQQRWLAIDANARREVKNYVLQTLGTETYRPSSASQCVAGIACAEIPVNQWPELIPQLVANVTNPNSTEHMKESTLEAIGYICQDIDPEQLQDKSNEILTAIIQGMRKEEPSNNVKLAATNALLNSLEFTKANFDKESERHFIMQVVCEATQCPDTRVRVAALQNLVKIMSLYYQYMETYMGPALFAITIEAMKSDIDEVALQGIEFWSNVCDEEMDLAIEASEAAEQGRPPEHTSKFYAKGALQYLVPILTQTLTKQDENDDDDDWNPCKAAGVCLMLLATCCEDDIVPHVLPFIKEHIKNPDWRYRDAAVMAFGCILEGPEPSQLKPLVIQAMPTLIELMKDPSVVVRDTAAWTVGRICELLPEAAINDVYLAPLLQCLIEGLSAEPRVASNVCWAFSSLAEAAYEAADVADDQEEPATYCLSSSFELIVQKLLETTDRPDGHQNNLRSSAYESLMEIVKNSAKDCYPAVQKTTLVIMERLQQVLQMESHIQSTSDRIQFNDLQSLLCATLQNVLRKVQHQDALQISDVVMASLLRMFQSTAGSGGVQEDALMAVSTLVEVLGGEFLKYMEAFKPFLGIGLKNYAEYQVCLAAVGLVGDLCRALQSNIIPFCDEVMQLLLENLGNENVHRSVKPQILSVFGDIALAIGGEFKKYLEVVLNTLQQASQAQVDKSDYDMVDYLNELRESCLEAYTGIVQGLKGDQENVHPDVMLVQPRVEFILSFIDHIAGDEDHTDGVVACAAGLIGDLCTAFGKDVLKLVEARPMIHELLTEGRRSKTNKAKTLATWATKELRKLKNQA
Histone acetyltransferase KAT2A (Homo sapiens), Q92830, UniProt Q92830, whole entry, looked up: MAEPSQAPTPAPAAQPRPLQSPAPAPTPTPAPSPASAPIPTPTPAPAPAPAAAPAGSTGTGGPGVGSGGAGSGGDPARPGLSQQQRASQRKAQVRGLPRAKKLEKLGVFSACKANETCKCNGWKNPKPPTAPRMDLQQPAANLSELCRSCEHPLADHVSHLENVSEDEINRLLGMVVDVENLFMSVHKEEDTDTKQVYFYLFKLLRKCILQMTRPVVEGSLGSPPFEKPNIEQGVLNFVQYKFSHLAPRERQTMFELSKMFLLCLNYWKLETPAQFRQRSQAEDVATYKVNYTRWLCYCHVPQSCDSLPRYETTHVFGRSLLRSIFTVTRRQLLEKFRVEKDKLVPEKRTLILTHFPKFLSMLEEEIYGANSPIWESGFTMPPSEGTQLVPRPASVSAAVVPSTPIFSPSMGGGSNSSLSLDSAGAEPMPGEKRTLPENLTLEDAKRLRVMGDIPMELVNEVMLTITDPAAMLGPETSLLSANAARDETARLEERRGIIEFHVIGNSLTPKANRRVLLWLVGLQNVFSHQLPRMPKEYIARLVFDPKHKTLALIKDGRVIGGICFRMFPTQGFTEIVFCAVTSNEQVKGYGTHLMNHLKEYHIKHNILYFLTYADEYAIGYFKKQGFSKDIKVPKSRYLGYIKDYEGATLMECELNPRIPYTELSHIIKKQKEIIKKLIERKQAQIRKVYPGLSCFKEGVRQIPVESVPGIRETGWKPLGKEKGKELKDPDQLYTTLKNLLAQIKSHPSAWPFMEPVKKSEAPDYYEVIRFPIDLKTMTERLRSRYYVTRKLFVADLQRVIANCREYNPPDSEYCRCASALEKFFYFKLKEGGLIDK

| structure | PLK1 PBD inh | PI5P4K alpha inh | Rango-impB inh | VDR inhibitor | GCN5L2 inh | Rango release inh |
| --- | --- | --- | --- | --- | --- | --- |
| O=S(=O)(Cc1ccccc1)N(O)c1ccccc1 | ? | -17.4 | -0.6% | 39.8µM* | -3.5% | -11.1% |
| O=C(O)CNS(=O)(=O)Cc1ccccc1 | -4.6% | -2.5 | 4.0% | 7.0% | -9.9% | 5.4% |
| Cc1ccc(-c2nn3c(=O)cc(CN4CCN(C(=O)/C=C/c5ccccc5)CC4)nc3s2)cc1 | nt | nt | nt | 15.1% | -17.8% | nt |
| O=C(O)Cn1c(SCCOc2ccc(Cl)cc2)nc2ccccc21 | -13.3% | 12.3 | 0.5% | -12.3% | -9.9% | -9.6% |
| O=C(O)Cn1c(SCCOc2ccccc2F)nc2ccccc21 | 18.9µM* | -29.3 | 0.3% | -15.0% | -3.0% | 0.4% |
| COc1ccc(CCNC(=O)Cc2c(C)c3cc4c(C(C)(C)C)coc4c(C)c3oc2=O)cc1OC | nt | nt | nt | -1.3% | -2.7% | nt |
| CC(C)N(Cc1ccccc1)C(=O)Cn1ncc2c([nH]c3ccccc32)c1=O | nt | nt | nt | 13.7% | -6.6% | nt |
| COc1cccc2c1CCCC2CCCN1CCN(C2CCCCC2)CC1 (stereo not drawn) | nt | nt | nt | 5.8% | -6.7% | nt |
| c1ccc(CNc2nc(-c3ccc4c(c3)OCO4)nc3ccccc23)cc1 | nt | nt | nt | 44.7µM* | ? | nt |
| c1ccc(CNc2ncncc2-c2ccc3c(c2)OCO3)cc1 | nt | nt | nt | 28.2µM* | -28.1% | nt |
| CNc1nc(-c2ccc3c(c2)OCO3)nc2ccccc12 | nt | nt | nt | 0.6% | -22.2% | nt |
| Cc1cccc(CNc2ncncc2-c2ccc3c(c2)OCO3)c1 | nt | nt | nt | ? | -9.3% | nt |
| Cc1ccc(-c2csc(=Nc3ccccc3)n2Cc2ccc3c(c2)OCO3)cc1 | nt | nt | nt | -2.4% | -6.8% | nt |
| Cc1c2c(c(O)c3c(O)cccc13)C(=O)O[C@H]2C1C(N(C)C)C(O)=C(C(N)=O)C(=O)[C@H]1O (stereo partly drawn) | nt | nt | nt | 15.8µM* | 3.16µM* | nt |
| COCc1cc(C)n(CC(=O)Nc2ccccc2OC)c(=O)c1C#N | 26.7µM* | -18.1 | -0.6% | ? | -2.6% | 4.1% |
| CCC(C)Nc1nc(-c2ccc3c(c2)NC(=O)CO3)cs1 (stereo not drawn) | 29.9µM* | 2.5 | 0.1% | -18.9% | -3.3% | -5.2% |
| O=C(CCCN1C(=O)/C(=C\c2ccco2)SC1=S)Nc1ccc(O)cc1C(=O)O | 16.8µM* | ? | 1.6% | ? | 10µM* | 1.1% |
| O=C(CCCN1C(=O)/C(=C\c2cccs2)SC1=S)Nc1ccc(O)cc1C(=O)O | -4.0% | ? | -0.2% | -15.9% | -14.8% | -14.7% |
| O=C(CCCN1C(=O)/C(=C/c2ccco2)SC1=S)Nc1cccc(C(=O)O)c1 | -26.6% | -59.7* | -2.0% | 4.8% | -11.1% | 1.7% |
| CCOc1ccc(CN(CCc2ccc3c(c2)OCO3)Cc2cc(OC)cc(OC)c2)cc1 | nt | nt | nt | -14.7% | -2.4% | nt |

Single records, from the list above. Values in the order: PLK1 PBD inh | PI5P4K alpha inh | Rango-impB inh | VDR inhibitor | GCN5L2 inh | Rango release inh
`Cc1c2c(c(O)c3c(O)cccc13)C(=O)O[C@H]2C1C(N(C)C)C(O)=C(C(N)=O)C(=O)[C@H]1O` (stereo partly drawn) reads nt | nt | nt | 15.8µM* | 3.16µM* | nt
`COc1cccc2c1CCCC2CCCN1CCN(C2CCCCC2)CC1` (stereo not drawn) reads nt | nt | nt | 5.8% | -6.7% | nt

(list continues)
| structure | PLK1 PBD inh | PI5P4K alpha inh | Rango-impB inh | VDR inhibitor | GCN5L2 inh | Rango release inh |
| --- | --- | --- | --- | --- | --- | --- |
| COc1nc(-c2ccccc2)ccc1-c1noc(-c2ccccc2)n1 | 7.4% | 29.4 | -1.3% | 14.8% | -20.7% | 7.5% |
| COc1ccc(-c2ccc(-c3noc(-c4ccccc4)n3)c(OC)n2)cc1 | 5.2% | nt | ? | 12.3% | -8.2% | 2.06µM* |
| COC(=O)c1cc(=O)nc(NN=C2c3ccccc3-c3ccccc32)s1 | 29.9µM* | -9.3 | nt | nt | nt | nt |
| C=CCOn1c(=O)c(-c2ccc(Cl)cc2)[n+]([O-])c2ccccc21 | ? | -8.9 | 0.3% | 17.3% | 0.3% | 1.5% |
| C=CCOn1c(=O)c(-c2cccs2)[n+]([O-])c2ccccc21 | 0.844µM* | nt | ? | -11.0% | 1.6% | ? |
| CC(=O)Oc1cccc2c1C(=O)c1c(OC(C)=O)cc(C(=O)O)cc1C2=O | ? | -76.3* | 5.1% | ? | -1.4% | 0.2% |
| O=C(O)CCc1ccc(-c2cccs2)n1CC1CCCO1 (stereo not drawn) | -12.2% | -10.8 | ? | -17.4% | -1.8% | 5.17µM* |
| O=C(O)CCc1ccc(-c2ccc(F)cc2)n1CC1CCCO1 (stereo not drawn) | -4.4% | nt | -3.3% | 3.7% | 1.2% | 8.6% |
| COc1ccc(NC(=O)Cn2nnc(C(=O)NCc3cccs3)c2N)c(OC)c1 | 23.8µM* | -21.9 | -2.5% | -24.0% | -9.0% | -14.9% |
| COc1cccc(Cn2nnc(C(=O)Nc3cc(C)ccc3OC)c2N)c1 | 26.7µM* | -3.4 | 0.6% | ? | -3.6% | 10.8% |
| Cn1ccc2cc(-c3ccc4ncnc(NCc5cccnc5)c4c3)ccc21 | nt | nt | nt | nt | -4.0% | nt |
| COC(=O)c1c(-c2ccccc2)csc1N | 10.6µM* | -3.0 | 1.9% | 5.8% | nt | 7.6% |
| COc1cc(NC(=O)c2ccc(C)c(Cl)c2)ccc1NC(=O)c1cc2ccccc2o1 | nt | nt | nt | -12.6% | -3.8% | nt |
| CC[C@H](C)[C@H](NC(=O)[C@H](CC(=O)O)NC(=O)[C@H](CC(C)C)NC(=O)[C@H](NC(C)=O)C(c1ccccc1)c1ccccc1)C(=O)N[C@H](C(=O)N[C@@H](Cc1c[nH]c2ccccc12)C(=O)O)[C@@H](C)CC | nt | nt | nt | 3.4% | -11.5% | nt |
| COc1ccc(OC)c(/C(O)=C/C(=O)C(=O)Nc2cc(C)cc(C)c2)c1 | -6.8% | 1.6 | 3.4% | -8.5% | -11.2% | -14.1% |
| COC(=O)C(=O)/C=C(\O)c1c(C)cc(C)cc1C | -6.3% | 10.5 | 65.1µM* | -16.7% | -15.6% | 6.8% |
| COc1ccc(C2C=C(C)Nc3nc(SC)nn32)cc1 (stereo not drawn) | -6.8% | -5.3 | ? | 3.3% | -10.2% | 18.4µM* |
| CNC(=O)C1CC(=O)N(c2ccc(OCC(=O)Nc3ccc(F)cc3)cc2)C1 (stereo not drawn) | 26.7µM* | ? | 1.9% | -5.6% | nt | 1.7% |
| CCOC(=O)c1ccc(NC(=O)COc2ccc(S(=O)(=O)NC(C)CC)cc2)cc1 (stereo not drawn) | -3.6% | 0.4 | -1.3% | 6.5% | -4.7% | -15.5% |
| C[C@H](NC(=O)C1CC(=O)N(c2ccc(F)cc2)C1)C(=O)N1CCCCC1 (stereo partly drawn) | 23.8µM* | -6.9 | -1.3% | -21.1% | -2.4% | -7.8% |
| CC(C)NS(=O)(=O)c1ccc(OCC(=O)Nc2ccc(F)cc2)cc1 | 23.8µM* | 2.6 | 0.4% | 1.7% | -12.4% | 9.9% |
| O=C(C1CC(=O)N(c2ccc(F)cc2)C1)N1CCCCC1 (stereo not drawn) | -11.4% | -3.4 | -3.2% | -15.2% | -0.5% | 8.0% |
| C=CCNC(=O)C1CC(=O)N(c2ccc(OCC(=O)Nc3ccc(C)cc3)cc2)C1 (stereo not drawn) | -1.4% | 0.9 | -0.5% | -0.8% | -29.7% | -5.8% |

A draw from above in order of length of the SMILES, lowest first.
| structure | PLK1 PBD inh | PI5P4K alpha inh | Rango-impB inh | VDR inhibitor | GCN5L2 inh | Rango release inh |
| --- | --- | --- | --- | --- | --- | --- |
| O=C(O)CCc1ccc(-c2cccs2)n1CC1CCCO1 (stereo not drawn) | -12.2% | -10.8 | ? | -17.4% | -1.8% | 5.17µM* |
| COc1cccc(Cn2nnc(C(=O)Nc3cc(C)ccc3OC)c2N)c1 | 26.7µM* | -3.4 | 0.6% | ? | -3.6% | 10.8% |
| C[C@H](NC(=O)C1CC(=O)N(c2ccc(F)cc2)C1)C(=O)N1CCCCC1 (stereo partly drawn) | 23.8µM* | -6.9 | -1.3% | -21.1% | -2.4% | -7.8% |
